# Assay results reported in US20230357314A1, “METHODS FOR ULTRAFAST FORMATION OF DISULFIDE BONDS IN PEPTIDES AND PROTEINS” (TECHNION RESEARCH & DEVELOPMENT FOUNDATION LIMITED, priority 2020, published 2023).
# Test system: methicillin resistant Staphylococcus aureus (MRSA)
# Details: MRSA growth after 17 h at 37° C., LB medium, absorbance at 600 nm, triplicate
smiles,measurement,value
CC[C@@H]1NC(=O)[C@H](CC(=O)O)NC(=O)[C@H](CC(=O)O)NC(=O)[C@H](CCC(=O)O)NC(=O)[C@H](CC(=O)O)NC(=O)[C@H](Cc2c[nH]c3ccccc23)NC(=O)[C@@H]2CCCN2C(=O)CNC(=O)[C@H](CC(N)=O)NC(=O)[C@@H](NC(=O)CNC(=O)[C@H](Cc2ccccc2)NC(=O)CN)CSSC[C@@H]2NC(=O)[C@H](Cc3ccc(O)cc3)NC(=O)CNC(=O)CNC(=O)[C@H](CCCCN)NC(=O)[C@H](Cc3ccc(O)cc3)NC(=O)CNC(=O)[C@H](CCCCN)NC(=O)[C@H]([C@@H](C)CC)NC(=O)[C@H](CO)NC(=O)[C@H](CCCCN)NC(=O)[C@@H]3CSSC[C@@H](C(=O)N[C@@H](Cc4ccc(O)cc4)C(N)=O)NC(=O)[C@H](CCCCN)NC(=O)[C@H](CSSC[C@H](NC(=O)[C@H](CCC(N)=O)NC1=O)C(=O)N[C@@H](Cc1c[nH]cn1)C(=O)N[C@@H](CC(N)=O)C(=O)N[C@@H](Cc1c[nH]cn1)C(=O)N3)NC(=O)[C@H](C(C)C)NC(=O)[C@H](Cc1ccccc1)NC(=O)CNC(=O)CNC(=O)[C@H](CCCCN)NC(=O)[C@H](C)NC2=O [plectasinMet13Abu],MIC,2.5 µM
CCCC[C@@H]1NC(=O)[C@H](CC(=O)O)NC(=O)[C@H](CC(=O)O)NC(=O)[C@H](CCC(=O)O)NC(=O)[C@H](CC(=O)O)NC(=O)[C@H](Cc2c[nH]c3ccccc23)NC(=O)[C@@H]2CCCN2C(=O)CNC(=O)[C@H](CC(N)=O)NC(=O)[C@@H](NC(=O)CNC(=O)[C@H](Cc2ccccc2)NC(=O)CN)CSSC[C@@H]2NC(=O)[C@H](Cc3ccc(O)cc3)NC(=O)CNC(=O)CNC(=O)[C@H](CCCCN)NC(=O)[C@H](Cc3ccc(O)cc3)NC(=O)CNC(=O)[C@H](CCCCN)NC(=O)[C@H]([C@@H](C)CC)NC(=O)[C@H](CO)NC(=O)[C@H](CCCCN)NC(=O)[C@@H]3CSSC[C@@H](C(=O)N[C@@H](Cc4ccc(O)cc4)C(N)=O)NC(=O)[C@H](CCCCN)NC(=O)[C@H](CSSC[C@H](NC(=O)[C@H](CCC(N)=O)NC1=O)C(=O)N[C@@H](Cc1c[nH]cn1)C(=O)N[C@@H](CC(N)=O)C(=O)N[C@@H](Cc1c[nH]cn1)C(=O)N3)NC(=O)[C@H](C(C)C)NC(=O)[C@H](Cc1ccccc1)NC(=O)CNC(=O)CNC(=O)[C@H](CCCCN)NC(=O)[C@H](C)NC2=O [plectasinMet13Nle],MIC,10 µM
CCC[C@@H]1NC(=O)[C@H](CC(=O)O)NC(=O)[C@H](CC(=O)O)NC(=O)[C@H](CCC(=O)O)NC(=O)[C@H](CC(=O)O)NC(=O)[C@H](Cc2c[nH]c3ccccc23)NC(=O)[C@@H]2CCCN2C(=O)CNC(=O)[C@H](CC(N)=O)NC(=O)[C@@H](NC(=O)CNC(=O)[C@H](Cc2ccccc2)NC(=O)CN)CSSC[C@@H]2NC(=O)[C@H](Cc3ccc(O)cc3)NC(=O)CNC(=O)CNC(=O)[C@H](CCCCN)NC(=O)[C@H](Cc3ccc(O)cc3)NC(=O)CNC(=O)[C@H](CCCCN)NC(=O)[C@H]([C@@H](C)CC)NC(=O)[C@H](CO)NC(=O)[C@H](CCCCN)NC(=O)[C@@H]3CSSC[C@@H](C(=O)N[C@@H](Cc4ccc(O)cc4)C(N)=O)NC(=O)[C@H](CCCCN)NC(=O)[C@H](CSSC[C@H](NC(=O)[C@H](CCC(N)=O)NC1=O)C(=O)N[C@@H](Cc1c[nH]cn1)C(=O)N[C@@H](CC(N)=O)C(=O)N[C@@H](Cc1c[nH]cn1)C(=O)N3)NC(=O)[C@H](C(C)C)NC(=O)[C@H](Cc1ccccc1)NC(=O)CNC(=O)CNC(=O)[C@H](CCCCN)NC(=O)[C@H](C)NC2=O [plectasinMet13Nva],MIC,2.5 µM
